In patent publication US12172975B2, “1H-indazole carboxamides as receptor-interacting protein kinase 1 inhibitors (RIPK1)” (BRISTOL-MYERS SQUIBB COMPANY, priority 2018, dated 2024):

Tested on: MLKL phosphorylation in HT29-L23 human colorectal adenocarcinoma cells
Assay: MLKL Phosphorylation High-Content Assay
Format: cell-based
Settings: necroptosis induced with TNFα, SMAC mimetic and Z-VAD, 6 h, read-out: pMLKL (IC50)
Method: MLKL Phosphorylation High-Content Assay
HT29-L23 human colorectal adenocarcinoma cells were maintained in RPMI 1640 medium containing 10% heat-inactivated FBS, 1% Penicillin-Streptomycin and 10 mM HEPES. Cells were seeded at 2,000 cells/well in 384 well tissue culture-treated microplates (Greiner #781090-3B) and incubated at 37° C. (5% CO2/95% O2) for 2 d. […] (5% CO2/95% O2). Necroptopsis was induced using a mixture of human TNFα (35 ng/mL) (Peprotech #300-01A), SMAC mimetic (from US 2015/0322111 A1) (700 nM) and Z-VAD ([…]) (BD pharmingen #51-6936). Following 6 h incubation at 37° C. (5% CO2/95% O2), the cells were fixed with 4% formaldehyde (ACROS 11969-0010) for 15 min at rt, then permeabilized with phosphate buffered saline (PBS) containing 0.2% Triton-X-100 for 10 min. MLKL phosphorylation was detected using anti-MLKL (phospho S358) antibody (Abeam #ab 187091) (1:1000 dilution in Blocking Buffer [PBS supplemented with 0.1% BSA]) with ON incubation at 4° C. After washing three times in PBS, goat anti-rabbit Alexa-488 (1:1000 dilution) (Life Technologies, A11008) and Hoechst 33342 (Life Technologies, H3570) (1:2000 dilution) in Blocking Buffer were added for 1 h at rt.
Following another three cycles of washes in PBS, the microplates were sealed, and cellular images were acquired in the Cellomics ArrayScan VTI high-content imager equipped with an X1 camera. Fluorescent images were taken using a 10× objective and the 386-23 BGRFRN_BGRFRN and 485-20 BGRFRN_BGRFRN filter sets, for nuclei and MLKL phosphorylation, respectively. The image sets were analyzed using the Compartmental Analysis Bioapplication software (Cellomics). The level of MLKL phosphorylation was quantified as MEAN_CircRingAvglntenRatio. The maximal inhibitory response was defined by the activity induced by Neels (CAS #: 852391-15-2, 6.25 μM). […] The data were fitted using the 4-parameter logistic equation to calculate the IC50 and Ymax values.

| Structure (SMILES) | IC50 |
| --- | --- |
| CNC(=O)c1n[nH]c2cc(-c3cnc(OC)c(C(=O)N[C@H](C)c4cccc(OC(F)(F)F)c4)c3)ccc12 [Example 217, 6-[6-(deutero)methoxy-5-{[(1R)-1-[3-(trifluoromethoxy)phenyl](2,2,2-deutero)ethyl]carbamoyl}pyridin-3-yl]-N-(deutero)methyl-1H-indazole-3-carboxamide, TFA] | 0.013 µM |
| CNC(=O)c1n[nH]c2cc(-c3cnc(OC)c(C(=O)N[C@@H](C)c4cccc(OC(F)(F)F)c4)c3)ccc12 [Example 221, 6-[6-(deutero)methoxy-5-{[(1S)-1-[3-(trifluoromethoxy)phenyl](2,2,2-deutero)ethyl]carbamoyl}pyridin-3-yl]-N-(deutero)methyl-1H-indazole-3-carboxamide] | 0.092 µM |
| CNC(=O)c1n[nH]c2cc(-c3cnc(OC)c(C(=O)N[C@@H](C)c4cc(C(F)(F)F)ccc4F)c3)ccc12 [Example 223, 6-(5-{[(1S)-1-[2-fluoro-5-(trifluoro-methyl)phenyl](2,2,2-deutero)ethyl]-carbamoyl}-6-(deutero)methoxy-pyridin-3-yl)-N-(deutero)methyl-1H-indazole-3-carboxamide] | 0.028 µM |

Structures can show the parent of a compound that is named as a salt.
